{"source": "patent US20140296190A1", "about": "“MARKETING THE USE OF 25-HYDROXYVITAMIN D3 TO ENHANCE COGNITION” (DSM IP ASSETS B.V., priority 2013, published 2014)", "settings": "127 frail elderly, baseline, P=0.30", "note": "Like-named read-outs stand apart in the source and are kept apart here."}
{"substance": "Vitamin D", "values": [{"measurement": "Correlation of vitamin D intake with serum 25-OH D3, r", "value": 0.09}, {"measurement": "Correlation of vitamin D intake with serum 25-OH D3, r", "setting": "listed as vitamin D", "value": "low"}]}
